{"source": "PubChem BioAssay AID575", "about": "(SRMLSC, 2007)", "note": "Only a part is listed here, and it is no random draw. Activity calls are given as the source filed them.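 Rule for the calls: active = viability at or below 30% in both replicate assays; inconclusive = viability at or below 30% in just one of the two assays; inactive = the rest.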"}
{"experiment": "HUVEC growth inhibition – cell-based, human, primary screen (AID 575);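 note: 100% = median of untreated cell wells with 0.1% DMSO on each plate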", "details": "HUVEC proliferation, CellTiter-Glo luminescence, 72 h; at 10 µM; stronger effect = lower value", "procedure,_shortened": "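Material: primary human umbilical vein endothelial cells / Schedule: 72 h exposure, 37 °C, 5% CO2, 30 min RT equilibration / Signal: ATP-based CellTiter-Glo luminescent read / Read-out basis: percent of median DMSO-control luminescence / Control set: 32 DMSO-only cell-control wells (high), 32 MePR drug-control wells (low) per plate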"}
{"smiles": "COP1(=S)c2c(C)nn(CCC#N)c2N=C(c2ccc(F)cc2)N1C", "note": "(stereo not given)", "viability": "inactive: 105%"}
{"smiles": "O=C(COc1ccccc1)OC1CN2CCC1CC2", "note": "(stereo not given)", "viability": "inactive: 100%"}
{"smiles": "Cc1nn(-c2ccccc2)c2c1P(=O)(N1CCOCC1)N(C)C(c1ccccc1)=N2", "note": "(stereo not given)", "viability": "inactive: 100%"}
{"smiles": "CCOP1(=S)c2c(C)nn(CCC#N)c2N=C(c2ccccc2F)N1C", "note": "(stereo not given)", "viability": "inactive: 92.6%"}
{"smiles": "O=P(Nc1nccs1)(c1ccccc1)c1ccccc1", "viability": "inactive: 85.2%"}
